Protein sequences, listed by entry. Tags and fused reporters are not part of them.
Desmoglein-3 (Homo sapiens), P32926, UniProt P32926, whole entry, looked up: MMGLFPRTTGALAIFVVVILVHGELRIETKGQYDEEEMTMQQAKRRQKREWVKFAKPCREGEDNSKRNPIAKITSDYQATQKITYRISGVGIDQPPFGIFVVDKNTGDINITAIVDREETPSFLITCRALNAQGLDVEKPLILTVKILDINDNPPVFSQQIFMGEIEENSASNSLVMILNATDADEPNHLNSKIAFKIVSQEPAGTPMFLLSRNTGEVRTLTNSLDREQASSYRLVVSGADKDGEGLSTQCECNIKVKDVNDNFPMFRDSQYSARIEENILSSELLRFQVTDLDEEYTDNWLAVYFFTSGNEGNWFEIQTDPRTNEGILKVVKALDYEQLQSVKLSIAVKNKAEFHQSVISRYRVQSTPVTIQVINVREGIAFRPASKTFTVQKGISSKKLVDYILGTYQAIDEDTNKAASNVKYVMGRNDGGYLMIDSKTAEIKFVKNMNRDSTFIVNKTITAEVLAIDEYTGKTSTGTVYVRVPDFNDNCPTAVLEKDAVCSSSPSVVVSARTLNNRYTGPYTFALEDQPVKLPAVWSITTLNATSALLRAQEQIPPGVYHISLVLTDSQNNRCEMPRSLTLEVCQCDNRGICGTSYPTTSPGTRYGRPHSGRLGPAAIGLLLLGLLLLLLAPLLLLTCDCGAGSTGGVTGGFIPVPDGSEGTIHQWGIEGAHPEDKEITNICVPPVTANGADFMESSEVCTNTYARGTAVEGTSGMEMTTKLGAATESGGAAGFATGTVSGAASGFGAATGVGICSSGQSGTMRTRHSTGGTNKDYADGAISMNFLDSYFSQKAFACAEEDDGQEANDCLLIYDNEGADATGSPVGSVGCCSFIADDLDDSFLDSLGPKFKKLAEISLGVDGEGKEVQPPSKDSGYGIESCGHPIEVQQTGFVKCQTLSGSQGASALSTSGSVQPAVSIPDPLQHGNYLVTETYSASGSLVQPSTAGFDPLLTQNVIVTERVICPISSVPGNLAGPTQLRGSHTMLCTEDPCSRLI

# Screens from PubChem.
# Pemphigus Ab inh – inhibitors of pemphigus antibody binding to DSG3, primary screen, biochemical, bead-based, flow cytometry, scFv-GFP. Desmoglein-3 (Homo sapiens), P32926. DSG3-coupled beads, scFv-anti-DSG3-GFP binding; active compounds read low. binding (percent of control), % at 10 µM. actives 0.48% (n = 310,000). AID 588358, 2011;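 active means binding more than 3 SD below its plate's average and above zero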;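 further: hits lower antibody fragment binding to DSG3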
# Rce1 inh – yeast Rce1p protease inhibitors, primary screen, biochemical, fluorescence, cell-free homogeneous; actives 0.27% (n = 290,000); calls only; CAAX prenyl protease 2 (Saccharomyces cerevisiae (strain ATCC 204508 / S288c)), Q03530; yeast membranes, quenched prenylated peptide cleavage fluorescence; AID 2563, 2010;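 active means fall in fluorescence gain of 50% or more versus controls, with final raw signal at or below 3038400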
# TbMetRS inhib – T. brucei MetRS inhibitors, primary screen, biochemical, luminescence; methionyl-tRNA synthetase (Trypanosoma brucei brucei); purified T. brucei MetRS, ATP depletion, Kinase-Glo luminescence; inhibition, % at 11.9 µM; actives 0.4% (n = 360,000); AID 624268, 2012;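 active means inhibition above a per-plate cutoff of the control wells' mean inhibition plus 3 SD, cut at about 5.5% in these data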
#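 Test system: purified T. brucei MetRS enzyme. Also added: ATP, methionine and E. coli bulk tRNA substrates. Compound: 11.9 µM single point. Schedule: 15 min enzyme-compound preincubation, 2 h reaction, 10 min detection, 25 °C. Signal: luciferase luminescence of residual ATP, Kinase-Glo. Evaluation: percent inhibition versus plate control medians. Controls: DMSO wells, low control.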
# Arrestin-AP2 inh – inhibitors of beta-arrestin/AP2 binding, primary screen, biochemical, GPCR trafficking, flow cytometry. AID 504490, 2011. inhibition, % at 10 µM. FITC-arrestin peptide / GST-AP2 beads; AP2 beta2 appendage carries R879A mutation. beta-arrestin 1 C-terminal peptide binding to AP2 beta2-adaptin appendage (human). actives 0.31% (n = 340,000);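 active means inhibition above a set limit, near 3 SD of compounds lacking own fluorescence, cut at about 54% in these data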
#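 System: GST-AP2 R879A glutathione beads. Medium: PBS with 0.05% Tween 20 and 0.1% BSA. Also added: FITC-arrestin peptide, 50 nM. Incubation: 12 min plus 1 h, RT. Measured by: high-throughput flow cytometry of beads, ex 488, em 535 nm. Evaluation: percent drop in bead-associated FITC signal.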
# UUG fidelity – modulators of yeast start codon fidelity, primary screen, whole organism, S. cerevisiae, single point, plate reader | AID 602363, 2012 | actives 0.13% (n = 350,000) | activity score, % at 18.7 µM | S. cerevisiae UUG-firefly luciferase reporter, luminescence/redox ratio;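 active means replicate mean at a twofold rise or more, about +100% in these data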;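 further: firefly luciferase made from a UUG start codon reports start codon fidelity; reporter light over untreated wells divided by growth signal over untreated wells; some hits fall short of that in this replicate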
# Numbers stand for hits; i = inactive; nt = no result given; + = active, no number. Hits are enriched below; roughly 1.2% of the tested compounds scored in any of these assays.
SMILES,Pemphigus Ab inh,Rce1 inh,TbMetRS inhib,Arrestin-AP2 inh,UUG fidelity
O=C(Nc1cccc(F)c1)Nc1ccnn1C1CCN(C(=O)CCN2CCCO2)CC1,0.6,i,i,i,i
CCS(=O)(=O)Nc1ccc2c(c1)C(=O)N(C)[C@@H]1CC[C@@H](CC(=O)OC)O[C@@H]1CO2,nt,nt,nt,nt,i
CCC(=O)N1CCN(c2ccc(NC(=O)c3ccc4c(c3)OCCO4)cc2)CC1,76,i,i,i,i
O=C(Cn1cnc([N+](=O)[O-])c1)Nc1cc(Oc2ccc(Cl)cc2Cl)cc([N+](=O)[O-])c1,i,i,78,i,i
CCOC(=O)CSc1nc2sc(C)c(C)c2c(=O)n1C,nt,i,i,i,i
CCOC(=O)CSc1nc2sc(C)c(C)c2c(=O)n1N,57,i,i,i,nt
N#Cc1ccc2sn(-c3ccccc3)c(=O)c2c1,41,nt,i,nt,i
CC(=O)Nc1ccc2sn(-c3ccccc3)c(=O)c2c1,49,nt,i,nt,i
O=c1c2cc([N+](=O)[O-])ccc2sn1-c1ccccc1,66,nt,i,nt,i
C[C@H](CO)N1C[C@H](C)[C@H](CN(C)C(=O)NC2CCCCC2)Oc2c(NC(=O)c3cnccn3)cccc2C1=O,nt,nt,nt,nt,i
COC(=O)Nc1nnc(-c2ccncc2)s1,i,+,i,i,i
CN(C)CC(=O)Nc1ccc2c(c1)[C@@H]1C[C@@H](CC(=O)N3CCN(C)CC3)O[C@H](CO)[C@@H]1O2,nt,nt,nt,nt,i
Cc1ccc(C2=NN(C(=O)CCC(=O)O)C(c3cccs3)C2)cc1 (stereo not given),i,i,i,i,i
COc1ccc(C2=NN(C(=O)CCC(=O)O)C(c3cccs3)C2)cc1 (stereo not given),i,+,i,i,nt
C[C@@H]1CN([C@H](C)CO)C(=O)c2cc(NS(=O)(=O)c3ccc(F)cc3)ccc2O[C@@H](C)CCCCO[C@H]1CN(C)S(=O)(=O)c1cccs1,nt,nt,nt,nt,i
CC(C)NC(=O)c1ccc(N(Cc2ccccc2)S(C)(=O)=O)cc1,88,i,i,i,i
CCC(=O)Nc1ccc2c(c1)C(=O)N(C)[C@@H]1CC[C@@H](CC(=O)NCC3CCCCC3)O[C@H]1CO2,nt,nt,nt,nt,i
CCn1c(=O)c(C(=O)CN2CCN(Cc3ccc4c(c3)OCO4)CC2)c(N)n(Cc2ccccc2)c1=O,i,i,i,i,nt
CCn1c(=O)c(C(=O)CN2CCN(S(=O)(=O)c3cc(C)ccc3C)CC2)c(N)n(Cc2ccccc2)c1=O,88,i,i,i,nt
O=C([C@H]1[C@H](CO)[C@H]2Cn3c(ccc(C4=CCCCC4)c3=O)[C@H]2N1Cc1nccs1)N1CCOCC1,nt,nt,nt,nt,i
COc1ccc(-n2nc(C(=O)NCC(=O)N3CCC(C)CC3)c3ccccc3c2=O)cc1,i,+,i,i,i
Cc1csc2nc(=O)c3ccccc3n12,i,+,i,i,nt
COc1cccc(S(=O)(=O)Nc2ccc3c(c2)[C@H]2C[C@H](CC(=O)O)O[C@@H](CO)[C@H]2O3)c1,nt,nt,nt,nt,i
O=C(O)C1CCN(S(=O)(=O)c2cccc3cccnc23)CC1,i,i,i,i,i
O=C(C1CCN(S(=O)(=O)c2cccc3cccnc23)CC1)N1CCCC1,89,i,i,i,i
SMILES,Pemphigus Ab inh,Rce1 inh,TbMetRS inhib,Arrestin-AP2 inh,UUG fidelity
CCNC(=O)C[C@@H]1CC[C@H]2[C@H](COc3ccc(NC(=O)Cc4ccccc4)cc3C(=O)N2C)O1,nt,nt,nt,nt,i
O=C(N/N=C/c1ccc(O)c(Br)c1)c1cc2c(ccc3ccccc32)o1,78,i,i,i,i
O=C(N/N=C/c1cc(Br)c(O)c(Br)c1)c1cc2c(ccc3ccccc32)o1,nt,i,i,i,i
O=C(CSc1ccc(-c2ccc(F)cc2)nn1)N1CCN(c2ccccc2)CC1,84,i,i,i,i
Cc1ccc(-c2nn3c(C)nnc3s2)cc1NC(=O)C(C)C,82,i,i,i,i
CSC[C@H](NC(=O)COc1cc2c(c3oc(=O)c(C)c(C)c13)CCC(C)(C)O2)C(=O)O,i,i,i,i,i
Cc1cc(=O)oc2c3c(cc(OCC(=O)N4CCC(C(=O)O)CC4)c12)OC(C)(C)CC3,i,+,i,i,i
Cc1cc(OCC(=O)N2CCC(C(=O)O)CC2)c2c(C)cc(=O)oc2c1,i,+,i,i,i
CSC[C@H](NC(=O)COc1cc2c(c3oc(=O)cc(C)c13)CCC(C)(C)O2)C(=O)O,i,+,i,i,i
CCc1cc(=O)oc2cc(C)cc(OCC(=O)N3CCC(C(=O)O)CC3)c12,i,i,i,i,i
CN1C(=O)c2cc(NC(=O)Nc3ccccc3F)ccc2OC[C@H]2O[C@@H](CC(=O)NCc3ccc(-c4ccccc4)cc3)CC[C@H]21,nt,nt,nt,nt,i
Cc1sc2nc(CSCC(=O)Nc3ccc(C(F)(F)F)cc3)[nH]c(=O)c2c1C,nt,nt,i,i,i
Cc1sc2nc(CSCC(=O)NC(C)(C)C)[nH]c(=O)c2c1C,i,i,i,55,nt
Cc1cccc(NC(=O)c2cc(S(=O)(=O)N3CCCCC3)c[nH]2)c1C,i,+,i,i,i
O=C(O)c1ccc(CN(c2ccccn2)S(=O)(=O)c2ccccc2)cc1,i,+,i,i,i
O=S(=O)(c1ccccc1)N(Cc1ccccc1)c1ccccn1,i,i,i,i,i
COc1ccccc1OC(C)C(=O)N1CCC(Cc2ccccc2)CC1 (stereo not given),i,nt,i,i,i
Cc1ccccc1OC(C)C(=O)N1CCC(Cc2ccccc2)CC1 (stereo not given),nt,+,i,i,i
CC(=O)Oc1ccc(C(=O)Nc2ccc(S(=O)(=O)NCC3CCCO3)cc2)cc1 (stereo not given),i,+,i,i,i
